Sequences of proteins named here, by UniProt entry; tags and fusion partners are left off.
UniProt P43115, whole entry: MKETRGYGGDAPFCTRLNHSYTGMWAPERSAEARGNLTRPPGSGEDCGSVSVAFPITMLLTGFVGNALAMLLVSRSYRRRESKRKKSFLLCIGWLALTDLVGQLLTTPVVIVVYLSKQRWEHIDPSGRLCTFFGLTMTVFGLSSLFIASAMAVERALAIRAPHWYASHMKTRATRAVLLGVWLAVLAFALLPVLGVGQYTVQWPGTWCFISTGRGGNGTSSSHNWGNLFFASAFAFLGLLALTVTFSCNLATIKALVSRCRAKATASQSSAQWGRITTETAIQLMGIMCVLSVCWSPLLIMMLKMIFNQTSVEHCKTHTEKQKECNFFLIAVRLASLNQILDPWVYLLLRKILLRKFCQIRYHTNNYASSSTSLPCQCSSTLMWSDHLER

In patent US20220324865A1 (Bayer Aktiengesellschaft, priority 2018, published 2022):

Biological target: human EP3 receptor (Homo sapiens, UniProt P43115)
Assay: Cellular in vitro assay for determining EP3 receptor activity (human EP3 cell line, sulprostone-stimulated calcium luminescence)
Details: read-out: EP3 CHO mtCLY ANTAG IC50, CHO cells expressing human EP3 and mitochondrial Clytin, antagonist mode, sulprostone at EC50
Method: B-1. Cellular In Vitro Assay for Determining EP3 Receptor Activity
The identification of antagonists of the EP3 receptor from humans and rats as well as the quantification of the activity of the compounds of the invention was carried out using recombinant cell lines. These cell lines originally derive from a hamsters ovary epithelial cell (Chinese Hamster Ovary, CHO K1, ATCC: American Type Culture Collection, Manassas, Va. 20108, USA). The test cell lines constitutively express the human or rat EP3 receptors. The naturally Gαi-coupled human and rat EP3 receptors were stably co-transfected with Gα16 into cells that are also stably transfected with a mitochondrial form of the calcium-sensitive photoproteins Clytin (human EP3) or Photina (rat EP3), which, after reconstitution with the cofactor coelenterazine, emit light when there are increases in free calcium concentrations (Nature 1992, 358, 325-327; Gene 1995, 153 (2), 273-274). The resulting EP3 receptor cells react to stimulation of the recombinantly expressed EP3 receptors by the agonist sulprostone with intracellular release of calcium ions, which can be quantified by the resulting photoprotein luminescence. Antagonists inhibit the receptor signaling, leading to reduced calcium release and luminescence. The bioluminescence of the cell lines is detected using a suitable luminometer (Trends Pharmacol. Sci. 1996, 17, 235-237).
Human and Rat EP3 Cell Lines:
On the day before the assay, the cells are plated out in culture medium (OptiMEM, 1% FCS, 2 mM glutamine, 10 mM HEPES, 5 μg/ml coelenterazine) in 384-well microtiter plates and kept in a cell incubator (96% humidity, 5% v/v CO2, 37° C.). On the day of the assay, test compounds in various concentrations are placed for 10 minutes in the wells of the microtiter plate before the agonist sulprostone at EC50 concentration is added. The resulting light signal is measured immediately in a luminometer. All concentrations are measured in quadruples.

| Compound | pIC50 | pIC50 (tested form: formate) |
| --- | --- | --- |
| Cc1ccc(-c2cn3nc(C(=O)NCCNCC(F)F)c(C4CC4)c3c(=O)[nH]2)cc1Cl | 8.92 | – |
| Cc1ccc(-c2cn3nc(C(=O)N[C@H](CN4CCOCC4)c4ccc(F)cc4)c(C(F)(F)F)c3c(=O)[nH]2)cc1Cl | 8.44 | – |
| Cc1ccc(-c2cn3nc(C(=O)NC(C#N)CO)c(C4CC4)c3c(=O)[nH]2)cc1F (stereo not shown) | 8.22 | – |
| CC(C)c1c(C(=O)N[C@@H](c2ccc(F)cc2)C(F)(F)CO)nn2cc(-c3cccc(Cl)c3)[nH]c(=O)c12 | 8.28 | – |
| O=C(NC(CO)C(F)(F)F)c1nn2cc(-c3ccc(Cl)c(Cl)c3)[nH]c(=O)c2c1C1CC1 (single isomer, unassigned) [6-419] | 8.82 | – |
| Cc1ccc(-c2cn3nc(C(=O)NC(c4ccc(F)cc4)C4(O)CC4)c(C(F)(F)F)c3c(=O)[nH]2)cc1F (single isomer, unassigned) [6-151] | 7.44 | – |
| COCc1c(C(=O)NCC(O)(C(F)(F)F)C(F)(F)F)nn2cc(-c3ccc4c(c3)OCCO4)[nH]c(=O)c12 | 8.29 | – |
| Cc1ccc(-c2cn3nc(C(=O)N[C@@H](C)C(C)(C)C)c(C(F)(F)F)c3c(=O)[nH]2)cc1Cl | 8.63 | – |
| Cc1cc(-c2cn3nc(C(=O)NC(C)CN4CCOCC4)c(C4CC4)c3c(=O)[nH]2)ccc1Cl (single isomer, unassigned) [6-329] | 8.26 | – |
| Cc1ccc(-c2cn3nc(C(=O)N[C@@H](C)c4ccc(C(F)(F)F)cc4)cc3c(=O)[nH]2)cc1C | 8.16 | – |
| Cc1ccc(-c2cn3nc(C(=O)N[C@@H](c4ccc(F)cc4)C(F)(F)CO)cc3c(=O)[nH]2)cc1C | 8.80 | – |
| Cc1ccc(-c2cn3nc(C(=O)NC(c4ccc(F)cc4)C4(O)CC4)c(C(F)(F)F)c3c(=O)[nH]2)cc1Cl (single isomer, unassigned) [6-176] | 8.40 | – |
| Cc1cc(-c2cn3nc(C(=O)N[C@@H](C)C(C)(C)C)c(C4CC4)c3c(=O)[nH]2)ccc1Cl | 8.64 | – |
| CN(C)CC(NC(=O)c1nn2cc(-c3ccc4ccccc4c3)[nH]c(=O)c2c1C(F)(F)F)c1ccc(F)cc1 (single isomer, unassigned) [6-508] | 8.21 | – |
| Cc1ccc(-c2cn3nc(C(=O)NC(CO)c4ccc(F)cc4)c(C4CC4)c3c(=O)[nH]2)cc1F (single isomer, unassigned) [6-374] | 9.00 | – |
| Cc1ccc(-c2cn3nc(C(=O)NC4(c5ccc(F)cc5)CN(C)C4)c(C4CC4)c3c(=O)[nH]2)cc1C(F)(F)F | 8.22 | – |
| Cc1ccc(-c2cn3nc(C(=O)NC(c4ccc(F)cc4)C4(O)CC4)c(C(F)(F)F)c3c(=O)[nH]2)cc1F (single isomer, unassigned) [6-150] | 8.99 | – |
| Cc1ccc(-c2cn3nc(C(=O)NC4CCN(CC(F)(F)F)C4)c(C4CC4)c3c(=O)[nH]2)cc1C (single isomer, unassigned) [6-461] | 8.78 | – |
| O=C(N[C@@H](c1ccc(F)cc1)C(F)(F)CO)c1nn2cc(-c3ccc(C(F)(F)F)c(F)c3)[nH]c(=O)c2c1C1CC1 | 8.59 | – |
| COc1ccc(C2(NC(=O)c3nn4cc(-c5ccc6c(c5)OCCO6)[nH]c(=O)c4c3C(F)(F)F)CN(C)C2)cc1 | 8.09 | – |

| Compound | pIC50 | pIC50 (tested form: formate) |
| --- | --- | --- |
| Cc1ccc(-c2cn3nc(C(=O)N[C@@H](c4ccc(F)cc4)C(C)(C)O)c(C#N)c3c(=O)[nH]2)cc1C | 8.57 | – |
| Cc1cc(-c2cn3nc(C(=O)N[C@H](C)C(C)(C)C)c(C(F)(F)F)c3c(=O)[nH]2)ccc1Cl | 8.47 | – |
| Cc1cc(-c2cn3nc(C(=O)N[C@H](C)c4ccc(F)cc4)c(C4CC4)c3c(=O)[nH]2)ccc1Cl | 9.19 | – |
| COC[C@H](C)NC(=O)c1nn2cc(-c3ccc(C)c(Cl)c3)[nH]c(=O)c2c1C1CC1 | 9.04 | – |
| Cc1cc(-c2cn3nc(C(=O)N[C@@H](c4ccc(F)cc4)[C@@H](O)C(F)(F)F)c(C(F)(F)F)c3c(=O)[nH]2)ccc1Cl | 9.15 | – |
| Cc1ncc(-c2cn3nc(C(=O)N[C@@H](C)c4ccc(F)cc4)c(C4CC4)c3c(=O)[nH]2)cc1Cl | 8.90 | – |
| Cc1cc(-c2cn3nc(C(=O)NC(c4ccc(F)cc4)C(F)(F)CO)c(C(F)(F)F)c3c(=O)[nH]2)ccc1Cl (stereo not shown) | 8.94 | – |
| Cc1cc(-c2cn3nc(C(=O)NCC(O)C(F)(F)F)c(C(F)(F)F)c3c(=O)[nH]2)ccc1Cl (single isomer, unassigned) [6-206] | 8.51 | – |
| O=C(N[C@@H](c1ccc(F)cc1)C(F)(F)CO)c1nn2cc(-c3ccc(Cl)c(F)c3)[nH]c(=O)c2c1C1CC1(F)F (stereo partly shown) | 8.69 | – |
| Cc1ccc(-c2cn3nc(C(=O)N[C@@H](c4ccc(F)cc4)C(C)(C)O)c(C4CC4)c3c(=O)[nH]2)nc1C | 8.94 | – |
| O=C(NCC(O)C(F)(F)F)c1nn2cc(-c3ccc(Cl)c(F)c3)[nH]c(=O)c2c1C1CC1 (single isomer, unassigned) [6-90] | 8.06 | – |
| Cc1cc(-c2cn3nc(C(=O)NCC(C)(N)C(F)(F)F)c(C(F)(F)F)c3c(=O)[nH]2)ccc1Cl (single isomer, unassigned) | 8.06 | – |
| COC[C@@H](C)NC(=O)c1nn2cc(-c3ccc(Cl)c(C)c3)[nH]c(=O)c2c1C1CC1 | 8.47 | – |
| Cc1ccc(-c2cn3nc(C(=O)NC(CO)C4CC4)c(C4CC4)c3c(=O)[nH]2)cc1Cl (single isomer, unassigned) [6-266] | 8.55 | – |
| O=C(NC(CN1CCOCC1)c1ccc(F)cc1)c1nn2cc(-c3ccc4ccccc4c3)[nH]c(=O)c2c1C(F)(F)F (single isomer, unassigned) [6-505] | 8.99 | – |
| Cc1cc(-c2cn3nc(C(=O)NC(C)CN4CCOCC4)c(C4CC4)c3c(=O)[nH]2)ccc1Cl (single isomer, unassigned) [6-328] | 8.03 | – |
| Cc1ccc(-c2cn3nc(C(=O)N[C@@H](c4ccc(F)cc4)C(F)(F)CO)c(C4CC4(F)F)c3c(=O)[nH]2)cc1Cl (stereo partly shown) | 8.73 | – |
| Cc1ccc(-c2cn3nc(C(=O)N[C@H](c4ccc(F)cc4)C(F)(F)CO)cc3c(=O)[nH]2)cc1C | 8.21 | – |
| Cc1cc(-c2cn3nc(C(=O)N[C@H](C)C4CC4)c(C4CC4)c3c(=O)[nH]2)ccc1C(F)(F)F | 8.11 | – |
| Cc1ccc(-c2cn3nc(C(=O)N[C@H](c4ccc(F)cc4)C(C)(C)O)c(C4CC4)c3c(=O)[nH]2)cc1Cl | 8.58 | – |

| Compound | pIC50 | pIC50 (tested form: formate) |
| --- | --- | --- |
| Cc1ccc(-c2cn3nc(C(=O)NC(c4ccc(F)cc4)C4(O)CC4)c(C(F)(F)F)c3c(=O)[nH]2)cc1Cl (single isomer, unassigned) [6-175] | 8.31 | – |
| CC(C)(O)[C@@H](NC(=O)c1nn2cc(-c3ccc4c(c3)OCCO4)[nH]c(=O)c2c1C(F)(F)F)c1ccc(F)cc1 | 9.09 | – |
| Cc1cc(-c2cn3nc(C(=O)NCC(O)C(F)(F)F)c(C(F)(F)F)c3c(=O)[nH]2)ccc1Cl (single isomer, unassigned) [6-205] | 8.07 | – |
| Cc1cc(-c2cn3nc(C(=O)N[C@@H](c4ccc(F)cc4)C(C)(C)O)cc3c(=O)[nH]2)ccc1C1CC1 | 8.20 | – |
| Cc1ccc(-c2cn3nc(C(=O)N[C@@H](c4ccc(F)cc4)[C@H](O)C(F)(F)F)cc3c(=O)[nH]2)cc1F | 8.94 | – |
| Cc1ccc(-c2cn3nc(C(=O)NCC(O)C(F)(F)F)c(C(F)(F)F)c3c(=O)[nH]2)cc1F (single isomer, unassigned) [6-138] | 8.20 | – |
| O=C(NCC(O)C(F)(F)F)c1nn2cc(-c3ccc(Cl)c(F)c3)[nH]c(=O)c2c1C1CC1 (single isomer, unassigned) [6-91] | 8.34 | – |
| Cc1ccc(-c2cn3nc(C(=O)NC4CCN(C5CC5)C4)c(C4CC4)c3c(=O)[nH]2)cc1C (single isomer, unassigned) [6-448] | 8.52 | – |
| Cc1ccc(-c2cn3nc(C(=O)N[C@@H](c4ccc(F)cc4)[C@@H](O)C(F)(F)F)c(C(F)(F)F)c3c(=O)[nH]2)cc1Cl | 8.70 | – |
| CN1CC(NC(=O)c2nn3cc(-c4ccc5ccccc5c4)[nH]c(=O)c3c2C#N)(c2ccc(F)cc2)C1 | – | 8.32 |
| O=C(NC(CO)C(F)(F)F)c1nn2cc(-c3ccc(Cl)c(F)c3)[nH]c(=O)c2c1C1CC1 (single isomer, unassigned) [6-92] | 8.02 | – |
| Cc1cc(-c2cn3nc(C(=O)NC(C#N)CO)c(C4CC4)c3c(=O)[nH]2)ccc1Cl (stereo not shown) | 8.46 | – |
| Cc1ccc(-c2cn3nc(C(=O)NCC(O)C(F)(F)F)c(C(F)(F)F)c3c(=O)[nH]2)cc1C (single isomer, unassigned) | 8.31 | – |
| Cc1ccc(-c2cn3nc(C(=O)NC4(c5ccc(F)cc5)CN(C)C4)c(Cl)c3c(=O)[nH]2)cc1C | 8.60 | – |
| Cc1ccc(-c2cn3nc(C(=O)NCC(O)C(F)F)c(C(F)(F)F)c3c(=O)[nH]2)cc1Cl (single isomer, unassigned) [6-182] | 8.05 | – |
| Cc1cc(-c2cn3nc(C(=O)NC(CO)C(F)(F)F)c(C4CC4)c3c(=O)[nH]2)ccc1Cl (single isomer, unassigned) [6-306] | 8.86 | – |
| COC[C@H](C)NC(=O)c1nn2cc(-c3ccc(C)c(F)c3)[nH]c(=O)c2c1C1CC1 | 8.46 | – |
| Cc1ccc(-c2cn3nc(C(=O)NC(C)c4ccccc4OC(F)F)cc3c(=O)[nH]2)cc1C(F)(F)F (stereo not shown) | 8.47 | – |

pIC50: −log10 of the molar value. Where two headings read alike, the source gives them in different places.
